Laboratory results taken from patent US20070074295A1 (priority 2000, published 2007).

System: CIRL-1 (calcium independent alpha-latrotoxin receptor)
Test: Rat Atlas Array, prefrontal cortex, chronic PCP model

c1ccc(C2(N3CCCCC3)CCCCC2)cc1 [PCP, phencyclidine]
E3C (CIRL) expression change (Atlas Array) (after PCP treatment regime, first experiment): increase | CIRL-1 expression (Atlas Array) (chronic PCP, second experiment): 9145 ± 669 relative optical densities
